For this assay, the target named is Recombinant human cathepsin S (CatS) (Homo sapiens, UniProt P25774). Briefly: biochemical.

Sequences of proteins named here, by UniProt entry; tags and fusion partners are left off. Residues count along the entry.
UniProt P25774, 115-331: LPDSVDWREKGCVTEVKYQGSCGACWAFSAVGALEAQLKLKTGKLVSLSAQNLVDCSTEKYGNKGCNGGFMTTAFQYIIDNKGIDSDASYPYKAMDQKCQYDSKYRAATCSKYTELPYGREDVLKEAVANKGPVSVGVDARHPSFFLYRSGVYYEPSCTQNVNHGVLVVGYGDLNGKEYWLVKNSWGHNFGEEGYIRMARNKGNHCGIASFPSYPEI

Broadly, the IC50 is the midpoint of a concentration-inhibition curve.

As to `CS(=O)(=O)N1CCc2c(c(-c3ccc(C(F)(F)F)c(SCCN4CCCCC4)c3)nn2CC(O)CN2CCC(O)(c3ccccn3)CC2)C1` (stereo not drawn) [Example 708, 1-{2-Hydroxy-3-[5-(methylsulfonyl)-3-{3-[(2-piperidin-1-ylethyl)sulfanyl]-4-(trifluoromethyl)phenyl}-4,5,6,7-tetrahydro-1H-pyrazolo[4,3-c]pyridin-1-yl]propyl}-4-pyridin-2-ylpiperidin-4-ol], the IC50 is 0.055 µM.

Turning to `CS(=O)(=O)N1CCc2c(c(-c3ccc(C(F)(F)F)c(SCC(=O)N4CCc5ccccc5C4)c3)nn2CCCN2CCC(N3CCCC3=O)CC2)C1` [Example 98, 1-{1-[3-(3-{3-[2-(3,4-Dihydro-1H-isoquinolin-2-yl)-2-oxo-ethylsulfanyl]-4-trifluoromethyl-phenyl}-5-methanesulfonyl-4,5,6,7-tetrahydro-pyrazolo[4,3-c]pyridin-1-yl)-propyl]-piperidin-4-yl}-pyrrolidin-2-one], the 50% inhibitory concentration (IC50) was determined as 0.19 µM. As for `CN(C)S(=O)(=O)N1CCc2c(c(-c3ccc(C(F)(F)F)c(SCCN4CCC(F)CC4)c3)nn2C[C@@H](O)CN2CCCCC2)C1` [Example 566, 3-[3-{[2-(4-Fluoropiperidin-1-yl)ethyl]sulfanyl}-4-(trifluoromethyl)phenyl]-1-[(2S)-2-hydroxy-3-piperidin-1-ylpropyl]-N,N-dimethyl-1,4,6,7-tetrahydro-5H-pyrazolo[4,3-c]pyridine-5-sulfonamide], the concentration for half-maximal inhibition (IC50) stood at 0.14 µM. On to `CC1CC(C)CN(CCSc2cc(-c3nn(CCCN4CCC(N5CCCC5=O)CC4)c4c3CN(S(C)(=O)=O)CC4)ccc2C(F)(F)F)C1` (stereo not drawn) [Example 9, 1-{1-[3-(3-{3-[2-(3,5-Dimethyl-piperidin-1-yl)-ethylsulfanyl]-4-trifluoromethyl-phenyl}-5-methanesulfonyl-4,5,6,7-tetrahydro-pyrazolo[4,3-c]pyridin-1-yl)-propyl]-piperidin-4-yl}-pyrrolidin-2-one], for which the IC50 was determined as 0.08 µM.

Turning to `CS(=O)(=O)N1CCc2c(c(-c3ccc(C(F)(F)F)c(SCCN4CCOCC4)c3)nn2CC(O)CN2CCc3ccccc3C2)C1` (stereo not drawn) [Example 573, 1-(3,4-Dihydroisoquinolin-2(1H)-yl)-3-[5-(methylsulfonyl)-3-{3-[(2-morpholin-4-ylethyl)sulfanyl]-4-(trifluoromethyl)phenyl}-4,5,6,7-tetrahydro-1H-pyrazolo[4,3-c]pyridin-1-yl]propan-2-ol], the IC50 turned out to be 0.46 µM. Take `CS(=O)(=O)N1CCc2c(c(-c3ccc(C(F)(F)F)c(SCCN4CCCCC4)c3)nn2CC(O)CN2CCC(C(=O)N3CCCCC3)CC2)C1` (stereo not drawn) [Example 797, 1-[5-(Methylsulfonyl)-3-{3-[(2-piperidin-1-ylethyl)sulfanyl]-4-(trifluoromethyl)phenyl}-4,5,6,7-tetrahydro-1H-pyrazolo[4,3-c]pyridin-1-yl]-3-[4-(piperidin-1-ylcarbonyl)piperidin-1-yl]propan-2-ol]: the IC50 stood at 0.055 µM.

For the molecule `OC(CN1CCN(c2ccccc2)CC1)Cn1nc(-c2ccc(C(F)(F)F)c(SCCN3CCC(F)(F)C3)c2)c2c1CCNC2` (stereo not drawn) [Example 417, 1-{3-[3-{[2-(3,3-Difluoropyrrolidin-1-yl)ethyl]sulfanyl}-4-(trifluoromethyl)phenyl]-4,5,6,7-tetrahydro-1H-pyrazolo[4,3-c]pyridin-1-yl}-3-(4-phenylpiperazin-1-yl)propan-2-ol], the IC50 turned out to be 0.56 µM. Take `CS(=O)(=O)N1CCc2c(c(-c3ccc(C(F)(F)F)c(SCCN4CCOCC4)c3)nn2CC(O)CN2CCC(C(N)=O)CC2)C1` (stereo not drawn) [Example 555, 1-{2-Hydroxy-3-[5-(methylsulfonyl)-3-{3-[(2-morpholin-4-ylethyl)sulfanyl]-4-(trifluoromethyl)phenyl}-4,5,6,7-tetrahydro-1H-pyrazolo[4,3-c]pyridin-1-yl]propyl}piperidine-4-carboxamide]: the IC50 is 0.24 µM. For `CS(=O)(=O)N1CCc2c(c(-c3ccc(C(F)(F)F)c(SCCN4CCCCC4)c3)nn2CC(O)CN2CCC(N3CCOCC3)CC2)C1` (stereo not drawn) [Example 687, 1-[5-(Methylsulfonyl)-3-{3-[(2-piperidin-1-ylethyl)sulfanyl]-4-(trifluoromethyl)phenyl}-4,5,6,7-tetrahydro-1H-pyrazolo[4,3-c]pyridin-1-yl]-3-(4-morpholin-4-ylpiperidin-1-yl)propan-2-ol] the value was 0.11 µM; for `CS(=O)(=O)N1CCc2c(c(-c3ccc(C(F)(F)F)c(SCCN4CCCC(F)C4)c3)nn2C[C@@H](O)CN2CCC(F)CC2)C1` (stereo partly drawn) [Example 504, (2S)-1-(4-Fluoropiperidin-1-yl)-3-{3-[3-{[2-(3-fluoropiperidin-1-yl)ethyl]sulfanyl}-4-(trifluoromethyl)phenyl]-5-(methylsulfonyl)-4,5,6,7-tetrahydro-1H-pyrazolo[4,3-c]pyridin-1-yl}propan-2-ol], 0.22 µM.

Turning to `Oc1ccccc1N1CCN(CC(O)Cn2nc(-c3ccc(C(F)(F)F)c(SCCN4CCCCC4)c3)c3c2CCNC3)CC1` (stereo not drawn) [Example 385, 2-{4-[2-Hydroxy-3-(3-{3-[(2-piperidin-1-ylethyl)sulfanyl]-4-(trifluoromethyl)phenyl}-4,5,6,7-tetrahydro-1H-pyrazolo[4,3-c]pyridin-1-yl)propyl]piperazin-1-yl}phenol], the IC50 is 0.35 µM.

With `CC1CCN(C[C@@H](O)Cn2nc(-c3ccc(C(F)(F)F)c(SCCN4CCC(F)CC4)c3)c3c2CCN(S(C)(=O)=O)C3)CC1` [Example 200, (2R)-1-{3-[3-{[2-(4-Fluoropiperidin-1-yl)ethyl]sulfanyl}-4-(trifluoromethyl)phenyl]-5-(methylsulfonyl)-4,5,6,7-tetrahydro-1H-pyrazolo[4,3-c]pyridin-1-yl}-3-(4-methylpiperidin-1-yl)propan-2-ol], the IC50 came out at 0.18 µM. As to `C[C@H]1COCCN1CCSc1cc(-c2nn(C[C@@H](O)CN3CCOCC3)c3c2CN(S(C)(=O)=O)CC3)ccc1C(F)(F)F` [Example 223, (2S)-1-{3-[3-({2-[(3S)-3-Methylmorpholin-4-yl]ethyl}sulfanyl)-4-(trifluoromethyl)phenyl]-5-(methylsulfonyl)-4,5,6,7-tetrahydro-1H-pyrazolo[4,3-c]pyridin-1-yl}-3-morpholin-4-ylpropan-2-ol], the concentration for half-maximal inhibition (IC50) was found to be 1.1 µM.

In the case of `CSCC(=O)N1CCc2c(c(-c3ccc(C(F)(F)F)c(SCCN4CCOCC4)c3)nn2CC(O)CN2CCCCC2)C1` (stereo not drawn) [Example 368, 1-(5-[(Methylsulfanyl)acetyl]-3-{3-[(2-morpholin-4-ylethyl)sulfanyl]-4-(trifluoromethyl)phenyl}-4,5,6,7-tetrahydro-1H-pyrazolo[4,3-c]pyridin-1-yl)-3-piperidin-1-ylpropan-2-ol], the IC50 amounted to 1.34 µM. The same measure for `CS(=O)(=O)N1CCc2c(c(-c3ccc(C(F)(F)F)c(SCCN4CCCCC4)c3)nn2CC(O)CN2CCN(c3ccccc3F)CC2)C1` (stereo not drawn) [Example 733, 1-[4-(2-Fluorophenyl)piperazin-1-yl]-3-[5-(methylsulfonyl)-3-{3-[(2-piperidin-1-ylethyl)sulfanyl]-4-(trifluoromethyl)phenyl}-4,5,6,7-tetrahydro-1H-pyrazolo[4,3-c]pyridin-1-yl]propan-2-ol]: 0.02 µM; for `OC(CN1CCC(c2ccccn2)CC1)Cn1nc(-c2ccc(C(F)(F)F)c(SCCN3CCC(F)(F)C3)c2)c2c1CCNC2` (stereo not drawn) [Example 418, 1-{3-[3-{[2-(3,3-Difluoropyrrolidin-1-yl)ethyl]sulfanyl}-4-(trifluoromethyl)phenyl]-4,5,6,7-tetrahydro-1H-pyrazolo[4,3-c]pyridin-1-yl}-3-(4-pyridin-2-ylpiperidin-1-yl)propan-2-ol]: 0.12 µM. The same measure for `CC(C)(O)C1CCN(C[C@H](O)Cn2nc(-c3ccc(C(F)(F)F)c(SCCN4CCCC(F)C4)c3)c3c2CCN(S(C)(=O)=O)C3)CC1` (stereo partly drawn) [Example 656, (2S)-1-{3-[3-{[2-(3-Fluoropiperidin-1-yl)ethyl]sulfanyl}-4-(trifluoromethyl)phenyl]-5-(methylsulfonyl)-4,5,6,7-tetrahydro-1H-pyrazolo[4,3-c]pyridin-1-yl}-3-[4-(1-hydroxy-1-methylethyl)piperidin-1-yl]propan-2-ol]: 0.09 µM; for `CS(=O)(=O)N1CCc2c(c(-c3ccc(C(F)(F)F)c(SCCN4CCOCC4)c3)nn2CC(O)CN2CCC(Cc3ccccc3)CC2)C1` (stereo not drawn) [Example 704, 1-[5-(Methylsulfonyl)-3-{3-[(2-morpholin-4-ylethyl)sulfanyl]-4-(trifluoromethyl)phenyl}-4,5,6,7-tetrahydro-1H-pyrazolo[4,3-c]pyridin-1-yl]-3-[4-(phenylmethyl)piperidin-1-yl]propan-2-ol]: 0.15 µM; for `CS(=O)(=O)N1CCc2c(c(-c3ccc(C(F)(F)F)c(SCCN4CCCC4)c3)nn2CC(O)CN2CCC(NC(=O)CO)CC2)C1` (stereo not drawn) [Example 603, 2-Hydroxy-N-(1-{2-hydroxy-3-[5-(methylsulfonyl)-3-{3-[(2-pyrrolidin-1-ylethyl)sulfanyl]-4-(trifluoromethyl)phenyl}-4,5,6,7-tetrahydro-1H-pyrazolo[4,3-c]pyridin-1-yl]propyl}piperidin-4-yl)acetamide]: 0.08 µM. Consider `CC1(C)CCN(C[C@H](O)Cn2nc(-c3ccc(C(F)(F)F)c(SCCN4CCCC(F)(F)C4)c3)c3c2CCN(S(C)(=O)=O)C3)CC1` [Example 623, (2S)-1-{3-[3-{[2-(3,3-Difluoropiperidin-1-yl)ethyl]sulfanyl}-4-(trifluoromethyl)phenyl]-5-(methylsulfonyl)-4,5,6,7-tetrahydro-1H-pyrazolo[4,3-c]pyridin-1-yl}-3-(4,4-dimethylpiperidin-1-yl)propan-2-ol], for which the IC50 is 0.14 µM. As to `CC(C)(C)OC(=O)NC1CCN(CCSc2cc(-c3nn(CCCN4CCC(N5CCCC5=O)CC4)c4c3CN(S(C)(=O)=O)CC4)ccc2C(F)(F)F)CC1` [Example 891, 1,1-Dimethylethyl {1-[2-({5-[5-(methylsulfonyl)-1-{3-[4-(2-oxopyrrolidin-1-yl)piperidin-1-yl]propyl}-4,5,6,7-tetrahydro-1H-pyrazolo[4,3-c]pyridin-3-yl]-2-(trifluoromethyl)phenyl}sulfanyl)ethyl]piperidin-4-yl}carbamate], the IC50 is 0.59 µM.

These data come from patent publication US20090099157A1, “TETRAHYDRO-PYRAZOLO-PYRIDINE THIOETHER MODULATORS OF CATHEPSIN S” (priority 2007, published 2009).
